In data set [1] the test system is BT474. Nature of the data set: Cell cycle analysis. Particulars: BT474, 24 and 72 hours. As for the experimental part:
(§1) Cell lines were plated in duplicate in 25 mm tissue culture dishes or in 6-well plates and treated 24 hours later with the indicated concentrations of PF-05175157. Docetaxel (10 nM, as a positive control) or with a DMSO control. At 24- and 72-hours post-treatment, cells were harvested and fixed overnight in 70% ethanol. Cells were then washed in PBS, stained with 50 μg/ml Propidium Iodide (Abcam) containing 550 U/mL RNase A, and assayed for DNA content on an LSR Fortessa Cytometer (BD Biosciences). Analysis was carried out using FlowJo software (BD Biosciences).

Data set [2] deals with MDAMB468. Nature of the data set: Cell cycle analysis. Particulars: MDAMB468, 24 and 72 hours. Here is the method:
as §1

Data set [3] has as its system BT474. Nature of the data set: Apoptosis assay (Annexin V/PI). Particulars: BT474, 72 hours. Here is the method:
(§2) Cell lines were plated in duplicate in 25 mm tissue culture dishes or in 6-well tissue culture plates and treated 24 hours later with the indicated concentrations of PF-05175157, Docetaxel (10 nM, as a positive control) or with a DMSO control. At 24- and 72-hours post-treatment, cells were harvested and stained with Annexin V-FITC according to the manufacturer's instructions (ANNEX300F, BioRad). Immediately prior to analysis by flow cytometry, Propidium Iodide (1 μg/mL) was added to the cells and assayed for apoptosis on an LSR Fortessa Cytometer (BD Biosciences). Analysis was carried out using FlowJo software (BD Biosciences). Annexin V single positive and Annexin V/PI double positive cells were considered apoptotic.

The test system of data set [4] is MDAMB468. Nature of the data set: Apoptosis assay (Annexin V/PI). As for the experimental part: as §2
Data set [5] concerns J000102184 patient derived xenograft model of triple negative breast cancer. Briefly: Mouse patient-derived xenograft (PDX) model. Particulars: for tumor growth compared to control: TNBC PDX J000102184, 20 mg/kg oral gavage BID. As for the experimental part:
The PDX experiments were performed by the In Vivo Services at The Jackson Laboratory Sacramento facility, according to an IACUC-approved protocol and in compliance with the Guide for the Care and Use of Laboratory Animals (National Research Council, 2011). The J000102184 patient derived xenograft model of triple negative breast cancer was tested in female NSG mice, NOD.Cg-Prkdc^scidIl2rg^tm1Wjl/SzJ (NSGTM: JAX 005557). Mice were housed in individually ventilated polysulfone cages with HEPA filtered air at a density of up to 5 mice per cage. The animal room was lighted entirely with artificial fluorescent lighting, with a controlled 12 h light/dark cycle (6 am to 6 pm light). The normal temperature and relative humidity ranges in the animal rooms were 22-26° C. and 30-70%, respectively. The animal rooms were set to have up to 15 air exchanges per hour. Filtered tap water, acidified to a pH of 2.5 to 3.0, and standard rodent chow was provided ad libitum. J000102184 tumor cells were injected into 7-week-old NSGTM mice at a volume of 40ul per mouse. Mice were enrolled when tumor volume reached between 100 to 200 mm^3. Body weights, clinical observations and digital caliper measurements were recorded two times weekly post enrollment. Animals that reached a body condition score of ≤2, a body weight loss of ≥20%, ulcerated tumors, or a tumor volume >2000 mm^3 were to be euthanized before study terminus.
On study day 0, dosing of mice began with PF-05175157. Group 1 was dosed with the vehicle comprised of 0.5% methycellulose in water. Group 2 was dosed with the 20 mg/kg of PF-05175157. Both groups were dosed twice daily by oral gavage for 4 weeks. On study day 43, tumor volumes were measured, and all animals were euthanized via CO2 asphyxiation. At take-down, tumors from all mice were harvested for FFPE.
Both, CDX and PDX data were analyzed with mixed effect models using lme4 R package. There were two fixed effects in the model: day of study and type of drug used (Vehicle or PF-05175157), and a random effect allowing for random intercept for each animal to include individual variability in tumor volume. The interaction term between two fixed effects was added to model the effects of drug on the rate of tumor growth.
(Xenograft models place foreign cells or tissue in a host animal.)

For data set [6], the system named is RMG-1. Briefly: High throughput in vitro cell line screen. Particulars: RMG-1, Ovarian. As for the experimental part: (§3) A high throughput in vitro cell line screen including over 500 human cancer cell lines was performed to assess singe agent PF-05175157 activity beyond breast cancer cells. Cell lines with calculated IC50 less than 10 μM (~4 μg/mL) are provided herein. The results are consistent with reports in the literature that ACC inhibition impairs cell viability in a broad range of cancers.

The test system of data set [7] is SNU-182. Nature of the data set: High throughput in vitro cell line screen. Particulars: SNU-182, Liver. As for the experimental part:
as §3

The conditions of data set [8]: cited from earlier work.
In data set [9] the test system is lipid synthesis. As to conditions: Phase I/II clinical trials; cited from earlier work.
The subject of data set [10] is MCF7/FR (fulvestrant resistant subclone). Briefly: In vitro single agent efficacy.
Data set [11] deals with MCF7. Nature of the data set: In vitro single agent efficacy. As to conditions: parental MCF7.
The subject of data set [12] is MCF7 and its fulvestrant resistant subclone (MCF7/FR). Briefly: In vitro combination with fulvestrant or TBV-3166.
Data set [13] deals with fulvestrant resistant MCF7 (MCF7/FR-Luc) xenograft. Briefly: Orthotopic fulvestrant resistant MCF-7 xenograft, IVIS imaging. Particulars: 20 mg/kg intraperitoneally once daily.

With `Cc1nc2ccc(C(=O)N3CCC4(CC3)CC(=O)c3c(cnn3C(C)C)C4)cc2[nH]1`, the “cells at G2/M phase” value in data set [1] is on record as “time dependent increase in cells at G2/M phase”; in data set [1] (listed as PF05175157) it was “trend towards G2/M cell cycle arrest”; in [2], “time dependent increase in cells at G2/M phase”; in data set [2] (listed as PF05175157), “trend towards G2/M cell cycle arrest”. The apoptosis entry was “significant increase in apoptosis” in data set [3] and “significant increase in apoptosis” in data set [4] (MDAMB468, 72 hours). The “percentage of apoptotic cells upon treatment” value is on record as 8% in [3] (10 μg/mL, from 4% without treatment) and 17.8% in data set [4] (MDMBA468, 72 hours, 10 μg/mL, from 7.7% without treatment). Further, the “tumor growth compared to control” value is “suppressed tumor growth” in data set [5] and “significantly delayed tumor growth” in data set [5] (listed as PF05175157). The “median tumor volume after 33 days” value in data set [5] (TNBC PDX, 20 mg/kg gavage BID, 490.5 mm^3 in methylcellulose-treated mice) worked out at 334.1 mm^3. This compound came in with a growth inhibition in data set [5] (TNBC PDX, 20 mg/kg oral gavage twice daily, vs methylcellulose controls) of 30%. The concentration for half-maximal inhibition (IC50) (as a rule, the concentration needed to halve the response being measured) in [6] worked out at 4.27 µM; in data set [7], 6.28 µM. Moreover, in data set [8] (Phase I/II clinical trials, healthy volunteers and patients with type 2 diabetes), the “plasma Cmax” value was 20000 to 40000 ng/mL. Also, the “Cmax that can be achieved in human serum” value in data set [8] (human serum) was 20000 ng/mL. For the same compound, the “effect on lipid synthesis in patients” value in [9] is given as “significant inhibitory effect on lipid synthesis”. Further, the “single agent inhibitory effect” value in data set [10] and in data set [11] was “significant single agent inhibitory effect” each time. The “additive effect or synergy in combination with TBV-3166” value in data set [12] is reported as “An additive effect or synergy was not definitively observed”. The “additive effect or synergy in combination with fulvestrant” value in [12] is recorded as “An additive effect or synergy was not definitively observed”. The single agent activity entry in data set [13] is on record as “Significant single agent activity”.
